Patent US20080261871A1, “Y2/Y4 Selective Receptor Agonists for Therapeutic Interventions” (priority 2004, published 2008)

Sequences of proteins named here, by UniProt entry; tags and fusion partners are left off. A change or cut given only in a name is not applied to a line headed by its entry.
UniProt P49146, whole entry: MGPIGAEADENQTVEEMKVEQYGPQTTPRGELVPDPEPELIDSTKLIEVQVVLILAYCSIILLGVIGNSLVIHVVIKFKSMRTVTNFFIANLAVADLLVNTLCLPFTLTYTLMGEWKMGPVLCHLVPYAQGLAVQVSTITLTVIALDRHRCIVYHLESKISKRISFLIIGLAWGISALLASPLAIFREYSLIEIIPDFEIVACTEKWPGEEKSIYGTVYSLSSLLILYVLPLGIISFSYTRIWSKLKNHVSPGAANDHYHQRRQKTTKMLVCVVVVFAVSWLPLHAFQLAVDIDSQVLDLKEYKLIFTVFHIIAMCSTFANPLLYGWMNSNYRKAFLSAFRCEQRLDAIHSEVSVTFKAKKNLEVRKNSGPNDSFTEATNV
UniProt P50391: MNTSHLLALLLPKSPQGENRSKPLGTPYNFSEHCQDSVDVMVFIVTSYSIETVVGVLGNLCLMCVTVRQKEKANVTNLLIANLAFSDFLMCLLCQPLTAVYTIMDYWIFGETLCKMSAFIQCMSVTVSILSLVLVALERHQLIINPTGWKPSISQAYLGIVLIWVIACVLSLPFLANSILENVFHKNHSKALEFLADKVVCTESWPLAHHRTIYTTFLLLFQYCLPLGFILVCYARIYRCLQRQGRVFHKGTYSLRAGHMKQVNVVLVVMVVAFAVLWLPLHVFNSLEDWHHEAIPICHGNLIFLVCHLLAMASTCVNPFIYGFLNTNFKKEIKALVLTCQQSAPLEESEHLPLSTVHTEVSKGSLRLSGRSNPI

Key:
human Y2 receptor = human Y2 receptor (human, UniProt P49146 1-381); test: cell-based or functional assay
human Y4 receptor = human Y4 receptor (human, UniProt P50391 1-375); test: cell-based or functional assay

| EC50, inositol phosphate turnover (human Y2 receptor) | EC50, inositol phosphate turnover (human Y4 receptor) | Binder |
| --- | --- | --- |
| 6.5 nM | 0.91 nM | APLEPVYPGDNATPEQMAQYAADLRRYINMITRQRY (C-terminal amide, PP analog with Ile at 31 and Gln at 34) [[Ile31,Gln34]PP] |
| 9.9 nM |  | APLEPVYPGDNATPEQMAQYAADLRRYINMVTRQRY (C-terminal amide, PP analog with Val at 31 and Gln at 34) [[Val31,Gln34]PP] |
